One substance from patent publication US8268635B2, “Methods of identifying agents that selectively activate p38 and/or NKkB signaling” (priority 2006, dated 2012) can be followed below.

“Also recorded” adds a separate entry of the source.

The test system of one assay is p38. The assay can be described thus: p38 activation in 70Z/3 cells transfected with hTNFR1 constructs. Type of assay: cell-based, mouse. On the procedure: FIG. 5(a) and (b) show the inability of TNF70-80 to stimulate p38 activation in cells lacking a TNFR. […] The cells were then lysed, protein contents quantified and subjected to p38 kinase assay by Western blot. The results are presented as the mean+−sem of 3 experiments.
The cells were maintained in RPMI-1640 medium with 4.5 g/L glucose, 2 mM L-glutamine, […] 2-mercaptoethanol and 10% FCS in an atmosphere of 95% air and 5% CO2. Cells were plated onto 10 cm plates at 4×10^7 cells in 15 ml culture medium. Before performing transient transfection, plasmid DNA (hTNFR1), kindly provided by Dr M. Kronke, Institute of Medical Microbiology and Hygiene, Medical Center University of Cologne, Koln, Germany (Adam, D., Wiegmann, K., Adam-Klages, S., Ruff A., and Kronke, M. (1996) J. Biol. Chem. 271: 14617-22), (20 μg in 1 ml of RPMI1640) was mixed with LipofectAMINE 2000 (Invitrogen) (60 μl in 1 ml of RPMI) and the mixture were left at room temperature for 20 min. The mixture was directly added to the cells and incubated for 24 h. The cells were washed twice with HBSS before use.
However, the role of the TNFR in the action of the peptide remained to be clearly defined.
We have made deletion mutants in which C1, C1+C2+C3 and all four cysteine-rich domains are deleted. […] The data imply that the remaining extracellular sequence juxtaposed to the plasma membrane is sufficient for TNF70-80 to stimulate p38 activity.

In another assay the test system is ASK-1. The assay can be described thus: ASK-1 autophosphorylation in neutrophils. It counts as cell-based, human. On the procedure: GCKR was immunoprecipitated from cell lysates and activity assayed using myelin basic protein (MBP) as the substrate. […] Results shown are the means+−sem of 3 experiments; (c) Expression of ASK-1 in HEK293T cells and neutrophils as determined by Western blot analysis of cell lysates. […] Activation of ASK-1 was determined by kinase autophosphorylation. A representative digital radiogram from 3 experiments is shown.
KHS (hereon referred to as “GCKR”) activity was assayed as described previously using myelin basic protein as a substrate (Shi, C. S., Leonardi, A., Kyriakis, J., Siebenlist, U., and Kerhl, J. H. (1999) J. Immunol. 163: 3279-3285). ASK-1 activation was determined in immunoprecipitates of ASK-1 by autophosphorylation (Kyriakis, J. M., and Auruch, J. (2001) Physiol. Rev. 81: 807-869). p38 and ERK activities were determined as described using myelin basic protein as a substrate (Hii, C. S., Huang, Z. H., Bilney, A., Costabile, M., Murray, A. W., Rathjen, D. A., Der, C. J., and Ferrante, A. (1998) J. Biol. Chem. 273: 19277-19282). […] Phosphorylated ASK-1, myelin basic protein and GST-jun (1-79) were fractionated on 8, 16 and 12% SDS polyacrylamide gels, respectively, and the bands were detected and radioactivity determined using an Instant Imager (Packard Instruments, Canberra, Australia). […]

The next assay relates to JNK. Description: JNK activity in WEHI-164 cells. It counts as cell-based. Conditions: 15 mins; TNF 1000 U/ml, TNF132-150 100 μg/ml. On the procedure:
A representative radiogram from the Instant Imager and pooled data (means±SEM of 3 experiments) are shown.
WEHI-164 cells were cultured in 28 cm^2 dishes to approx 80% confluence before the desired treatment. […] After washing twice with cold HBSS, cells were harvested by scraping and lysed in 400 μl of buffer A (20 mM HEPES, pH 7.4, 0.5% (v/v) Nonidet P-40, 100 mM NaCl, 1 mM EDTA, 2 mM Na3VO4, 2 mM dithiothreitol, 1 mM phenylmethylsulfonyl fluoride, and 10 μg/ml Sigma 104, leupeptin, aprotonin, pepstatin A, and benzamidine) for 2 h at 4° C. with constant mixing (Hii et al. (1998) J Biol Chem. 273(30):19277-82). After centrifugation (12,000 g×5 min), the supernatants were collected and the protein content of the lysates was determined by Lowry's method of protein determination. A solid phase assay using glutathione-S-transferase (GST)-conjugated-jun (1-79) was employed to assay JNK activity (Hii et al. (1998) J Biol Chem. 273(30):19277-82) GST-jun (1-79) was fractionated on 12% SDS polyacrylamide gels and the bands were detected and radioactivity determined using an Instant Imager (Packard Instruments, Canberra, Australia). For p38 and ERK1/ERK2 activity lysates containing equal amounts of protein (0.5-1 mg) were precleared with protein A sepharose (4° C.) before being incubated with anti-p38 or anti-ERK2 antibody (3 μg/sample). […]

For “TNF: Human recombinant TNF produced by Genentech, Inc.”, in the assay with p38, the “p38 activity in 70Z cells transfected with an empty vector” value is recorded as “did not stimulate the activity of p38”; the “p38 activity in 70Z cells, TNF receptor with C1-C3 deleted” value is “greatly diminished”; the “p38 activity in 70Z cells, TNF receptor with C1-C4 deleted” value is given as “not able to stimulate kinase activity”; the “p38 activity in 70Z cells, TNF receptor with C1 domain deleted” value was “able to stimulate the activity of p38”. The “p38 activation in 70Z/3 cells transfected with wild type hTNFR1” value in the assay on p38 (5 min, TNF 1000 U/ml, peptides 10 μM) is given as “caused the activation of p38; also recorded: stimulated the activity of p38 in cells transfected with wild type receptors”. Moreover, in the assay with p38 (cells lacking TNFR, 5 min, TNF 1000 U/ml, peptides 10 μM), the “p38 activation in non-transfected 70Z/3 cells” value is “neither TNF nor TNF70-80 activated p38”. Further, the “ASK-1 phosphorylation in non-adherent neutrophils” value in the assay on ASK-1 (data not shown) is recorded as “not altered”. For the same substance, in the assay with ASK-1 (plasma-coated dishes, 3 or 7 min), the “ASK-1 phosphorylation in adherent neutrophils” value is on record as “neither TNF nor TNF70-80 increased the level of ASK-1 phosphorylation”. The “JNK activity in WEHI-164 cells” value with JNK was “able to activate all three MAP kinases”.
